Assay: Dissociation constant, pKa of the compound
Format: physicochemical

pKa: 4.5
SMILES: CC(C(=O)O)c1cccc(Oc2ccccc2)c1 (stereo unspecified) [FENOPROFEN]
